The subject of data set [1] is Herpes Simplex Virus type 1, McIntyre (HSV1). The data set is described as follows: Viral Plaque Reduction Assay / inhibition of infection assay, HSV1 in Vero cells. Type of data set: cell-based. To be noted: 10 μg/ml spinosad, day 2. (In general: In a plaque reduction assay, fewer plaques than in the control indicate reduced infectivity or spread.)
Data set [2] concerns Vero cells. The data set is described as follows: Toxicity assay on Vero cells. The format is cell-based, African Green Monkey. Particulars: 10 μg/ml spinosad.

On to Spinosad, for which, in data set [1], the “plaque size relative to same virus dilution with no spinosad” value is “one third the size”. The “toxicity to Vero cells” value in data set [2] is given as “no toxicity”.

Values taken from patent publication US8697661B2, “Use of spinosyns and spinosyn compositions against herpesviridae viral infections” (priority 2009, dated 2014).
